The source of these data is patent US20240002463A1, “CHEMOGENETIC RECEPTORS AND METHODS OF MAKING AND USING” (Howard Hughes Medical Institute, priority 2022, published 2024).

Chains of the proteins cited; added tags and fusions are not shown. A line that says so, or that is headed by a name, gives the form on record, which may keep a tag or linker.
UniProt P36544, with tags, fused parts or gaps L141G/G175K/Y210F/Y217F/T225I/M226I: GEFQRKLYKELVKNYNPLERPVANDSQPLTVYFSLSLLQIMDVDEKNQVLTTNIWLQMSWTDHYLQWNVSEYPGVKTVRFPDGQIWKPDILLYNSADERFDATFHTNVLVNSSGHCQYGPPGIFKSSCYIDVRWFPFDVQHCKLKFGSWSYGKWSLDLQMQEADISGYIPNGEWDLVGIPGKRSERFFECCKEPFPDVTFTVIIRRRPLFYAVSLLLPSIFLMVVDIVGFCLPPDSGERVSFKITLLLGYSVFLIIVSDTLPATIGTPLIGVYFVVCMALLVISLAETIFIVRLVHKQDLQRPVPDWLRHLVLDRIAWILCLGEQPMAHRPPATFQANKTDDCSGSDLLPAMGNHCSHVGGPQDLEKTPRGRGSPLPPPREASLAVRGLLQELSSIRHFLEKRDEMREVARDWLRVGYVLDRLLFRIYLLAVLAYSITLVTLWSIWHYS

For the assay, the target named is coca-5HT3 (Homo sapiens, UniProt P36544, G175K/L141G/M226I/T225I/Y210F/Y217F). The assay can be described thus: binding constants by displacement of [3H]-ASEM or radiolabeled drug. To be noted: ligand for coca-5HT3.

In turn, `O=S1(=O)c2cc(N3CCN4CCC3CC4)ccc2-c2cccc(F)c21` [[^18F]-ASEM] yielded a Ki of 9.3 nM.
